# Yeast mating assay B: variants of the scFv Ab-14

Reference: Li et al. 2023, doi:10.1038/s41467-023-39022-2. File: FLAb, binding data.

The target is the same throughout: PDVDLGDISGINAS, from the HR2 region of SARS-CoV-2 spike.

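The parent was found by panning a naive human phage display library on the peptide. Designed CDR sequences, proposed from the first random library and measured here. Group labels follow the data file (Ctrl: baseline library sampled from a position-specific scoring matrix, with some repeated check sequences; Rand: our label for a block that the file lists under HC and that is probably the random mutants of the ten best first-round binders; En: ensemble of fine-tuned language models; GP: Gaussian process model; GPLM: also part of the Gaussian process libraries; HC: hill climbing; Gen: genetic algorithm; Gibbs: Gibbs sampling; a sequence that several methods proposed may carry one label only). The scFvs were displayed on barcoded MATa yeast, the peptide on MATalpha yeast. Mating (16 h, 30 °C) was followed by selection of diploids and sequencing of their barcodes. A regression on co-assayed BCL2-family reference pairs converts the normalised counts of each replicate to an apparent Kd. The assay was run in six technical replicates.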

Ab-14 is the parent antibody, in scFv form: VH, then a (GGGGS)3 linker, then VL. The light chain is unchanged in all variants.
VH: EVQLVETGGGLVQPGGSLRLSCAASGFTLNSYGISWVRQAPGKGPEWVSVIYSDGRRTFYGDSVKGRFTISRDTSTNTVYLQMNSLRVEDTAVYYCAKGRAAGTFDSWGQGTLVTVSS
VL: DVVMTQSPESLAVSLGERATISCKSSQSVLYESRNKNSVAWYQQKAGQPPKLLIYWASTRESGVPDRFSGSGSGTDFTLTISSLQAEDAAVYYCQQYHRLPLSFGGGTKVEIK

The parent's heavy chain CDRs are GFTLNSYGIS, VIYSDGRRTFYGDSVK, GRAAGTFDS; each variant's own CDRs replace them letter for letter.
Affinities are written as log10 Kd with Kd in nM; a lower number is a better binder.
Replicates are averaged; those with no signal do not enter the mean.
An entry "n.d." has no value in the source: the pair was not observed among the diploids in that replicate. This suggests poor binding but is not conclusive.
Entries are sorted by rising average, undetected variants last.
The authors averaged sequences with at least three values out of six and counted those with two or fewer as poor binders.
Empty control strains, which show no peptide, gave a signal in 1% of pairings with all heavy chain designs; the median was 2.08 and 95% of these signals were weaker than 0.84. No background was subtracted.
Values of this round are not directly comparable with the first-round values of the same sequences.

| CDR-H1 | CDR-H2 | CDR-H3 | group | log10 Kd, replicates | mean, log10 nM |
|---|---|---|---|---|---|
| GFDLNEYGIS | VIYADGKRTAYADSVK | GGVAGTFDL | En_Gen | -0.39 -0.62 -0.87 -0.62 -0.51 -0.47 | -0.58 |
| GFDLEDYGIS | VIYADGMRTAYSDSVK | GEVAGTFDT | En_Gen | -0.12 -0.27 -0.66 -0.87 -0.50 -0.42 | -0.47 |
| GFDLNEYGIS | VIYADGVRTAYVDSVK | GETAGTFDS | En_HC | -0.95 -1.00 -0.13 0.18 -0.67 -0.09 | -0.44 |
| GFDLNEYGIS | VIYADGVRKAYVDSVK | GNVAGTFDV | En_Gen | -0.15 -0.42 -0.36 -0.29 -0.44 -0.22 | -0.31 |
| GFDLNEYGIS | VIYADGIRTFYADSVK | GNNAGTFDS | En_HC | -0.09 -0.47 0.09 -0.01 -0.41 -0.58 | -0.24 |
| GFDLEEYGIS | VIYADGRRTAYADSVK | GQNAGTFDV | En_Gen | -0.09 -0.36 -0.41 -0.24 -0.25 -0.06 | -0.24 |
| GFDLDEYGIS | VIYADGMRTAYSDDVK | GEVAGTFDV | En_Gen | -0.14 -0.30 -0.16 -0.52 -0.15 0.05 | -0.20 |
| GFDLNEYGIS | VIYADGKRTAYADSVK | GTNAGTFDM | En_Gen | -0.16 -0.21 -0.08 -0.21 -0.07 -0.10 | -0.14 |
| GFTLNSYGIS | VIYADGRRTFYGDSVK | GYAAGTFFL | Ctrl | -0.05 -0.58 n.d. n.d. -0.49 0.57 | -0.14 |
| GFDLDEYGIS | VIYADGRRTFYADSVK | GEAAGTFDA | En_HC | -0.06 0.09 0.21 -0.27 -0.55 -0.02 | -0.10 |
| GFTLNSYGIS | VIYSDGRRTFYDDSVK | GTTAGTFDS | GP_HC | -0.01 -0.06 -0.01 0.01 0.04 0.23 | 0.03 |
| GFSLNSYGIS | VIYSDGRRTFYIDNVK | GNAAGTFDS | GPLM_Gibbs | n.d. n.d. n.d. n.d. 0.11 n.d. | 0.11 |
| GFSINEYGIS | VIYSDGLRTFYSDSVK | GRAAGTFDS | Ctrl | 0.56 0.34 0.59 0.43 0.31 0.75 | 0.50 |
| GFTLNSYGIS | VIYSDGRRTFYKDSVK | GQLAGTFDT | GP_HC | 1.57 1.27 0.24 0.48 0.30 n.d. | 0.77 |
| GFDLDEYGIS | VIYADGMRTAYADNVK | GNQAGTFDV | En_Gen | 0.67 0.90 0.27 1.09 -0.19 2.43 | 0.86 |
| GFDLNSYGIS | VIYSDGRRTFYIDSVK | GQAAGTFDM | GP_HC | 0.98 1.05 1.27 0.66 0.50 0.84 | 0.88 |
| GFSLNSYGIS | VIYSDGKRTFYGDSVK | GWAAGTFDS | GP_Gibbs | 0.15 0.55 1.78 1.12 1.00 0.76 | 0.89 |
| GFTLESYGIS | VIYSDGRRTFYGDSVK | GQEAGTFDS | GP_Gen | 1.02 1.04 1.54 0.84 0.73 0.93 | 1.02 |
| GFTLNDYGIS | VIYSDGRRTFYGDSVK | GAAGGTFDS | Ctrl | 1.50 1.25 n.d. n.d. 0.24 1.65 | 1.16 |
| GFNLNSYGIT | VIYSDGRRTFYGDSVK | GRAAGTFDS | Ctrl | n.d. 1.81 1.59 2.68 3.91 1.89 | 2.38 |
| GFTLNSQGIC | VIYSDGSRTFYSDSVK | GRAAGTFDS | Ctrl | n.d. n.d. n.d. n.d. n.d. n.d. | n.d. |
| GHTLDSYGIT | VIYSDGRRTFYGDSKK | GRAAGTALS | Rand | n.d. n.d. n.d. n.d. n.d. n.d. | n.d. |
| GFDLNEYGIS | VIYADGMRTFYADSVK | GEFAGTFDS | En_HC | n.d. n.d. n.d. n.d. n.d. n.d. | n.d. |
| SFELNSYGIS | VIYSDGRRTFYVDSVK | GQTAGTFDS | GP_Gibbs | n.d. n.d. n.d. n.d. n.d. n.d. | n.d. |
| GQDLNEYGIS | VIYADGLRTAYTNNFK | GVQAGFDQG | En_Gibbs | n.d. n.d. n.d. n.d. n.d. n.d. | n.d. |
| GFDLNEMGIS | VIYADGRRVAYNDKVK | GNLTGTFDQ | En_Gibbs | n.d. n.d. n.d. n.d. n.d. n.d. | n.d. |
| GFTLNLAGIS | VIYSDGRRTWYQDSVK | GRAAGTFDS | Ctrl | n.d. n.d. n.d. n.d. n.d. n.d. | n.d. |
| GFTLNDYGIS | VIYSDGRRTQYIDWVK | GRAAGTFDS | Rand | n.d. n.d. n.d. n.d. n.d. n.d. | n.d. |
| GKALDEYGIS | VIYADGQRVFYSDTVK | GNQGFTYDV | En_Gibbs | n.d. n.d. n.d. n.d. n.d. n.d. | n.d. |
| GFNLDEYGIS | VIYADGVRKAYSSKVK | GKVWWFFLM | En_Gibbs | n.d. n.d. n.d. n.d. n.d. n.d. | n.d. |

For reference, 4 entries of the list once more:

| CDR-H1 | CDR-H2 | CDR-H3 | group | log10 Kd, replicates | mean, log10 nM |
|---|---|---|---|---|---|
| GFDLDEYGIS | VIYADGMRTAYADNVK | GNQAGTFDV | En_Gen | 0.67 0.90 0.27 1.09 -0.19 2.43 | 0.86 |
| GFTLESYGIS | VIYSDGRRTFYGDSVK | GQEAGTFDS | GP_Gen | 1.02 1.04 1.54 0.84 0.73 0.93 | 1.02 |
| GKALDEYGIS | VIYADGQRVFYSDTVK | GNQGFTYDV | En_Gibbs | n.d. n.d. n.d. n.d. n.d. n.d. | n.d. |
| GFDLNEYGIS | VIYADGKRTAYADSVK | GGVAGTFDL | En_Gen | -0.39 -0.62 -0.87 -0.62 -0.51 -0.47 | -0.58 |